From US20260256778A1 (AbbVie Inc., priority 2023, published 2026)
Converted amounts (≈) assume the structure as drawn.

Key:
[1] = Solubility of upadacitinib in different aqueous media at 37° C.; type: physicochemical; settings: 50 mM citrate buffer, pH 5.96, aqueous buffer, thermodynamic from solid, pH nominal 6.01, final 5.96, 37° C.
[2] = tested on: non-segmental vitiligo (NSV); settings: 22 mg QD, Week 24

**Q.** What does the source list for `CC[C@@H]1CN(C(=O)NCC(F)(F)F)C[C@@H]1c1cnc2cnc3[nH]ccc3n12` [Upadacitinib, (3S,4R)-3-ethyl-4-(3H-imidazo[1,2-a]pyrrolo[2,3-e]pyrazin-8-yl)-N-(2,2,2-trifluoroethyl) pyrrolidine-1-carboxamide]?
**A.** solubility [1]: 196 ± 1 µg/mL (≈ 515 µM); CFB in VitiQoL Total Score; LSMEAN (SE) [2]: −6.6 (2.56)
